Measured values reported in patent US20100099198A1 (priority 2008, published 2010).

Experiments:
[1] = molecular target: (M113F)7(T145F)7(K147N)7 αHL protein pore (Staphylococcus aureus, UniProt P09616, K173N/M139F/T171F)
[2] = test system: double-channel consisting of a single (M113R)7(T145R)7 pore and a single (M113F)7(T145F)7(K147N)7 protein; details: single component present, -40 mV, combined open channel current -51.0 pA, FIG. 9b

## Y-Y-Y-Y-Y-Y
[1]; in (M113F)7(T145F)7(K147N)7, 1 M NaCl, 10 mM Tris.HCl pH 7.5, FIG. 6
  dwell time: 7333.6 ms

## Y-G-R-K-K-R-R-Q-R-R-R
[1]; sensor 1 of four-pore array = (M113F)7(T145F)7(K147N)7 pore
  signal (current blocking events) in sensor 1: very weak response

## cyclo(P-G)3
[1]; single (M113F)7(T145F)7(K147N)7 pore (sensor 2 of FIG. 8), -40 mV, 10 μM cyclo(P-G)3, open channel current -28.3 pA
  mean residual current of events: −6.4 pA
[2]
  mean residual current of current blockage events: −31.3 pA
